From PubChem BioAssay (NCATS) come the findings set out here.

By UniProt entry, the sequences of proteins in these tests, tags left out. Where a name states a change or a piece, a line headed by the entry shows the natural chain unless it says otherwise.
UniProt A8B2U2: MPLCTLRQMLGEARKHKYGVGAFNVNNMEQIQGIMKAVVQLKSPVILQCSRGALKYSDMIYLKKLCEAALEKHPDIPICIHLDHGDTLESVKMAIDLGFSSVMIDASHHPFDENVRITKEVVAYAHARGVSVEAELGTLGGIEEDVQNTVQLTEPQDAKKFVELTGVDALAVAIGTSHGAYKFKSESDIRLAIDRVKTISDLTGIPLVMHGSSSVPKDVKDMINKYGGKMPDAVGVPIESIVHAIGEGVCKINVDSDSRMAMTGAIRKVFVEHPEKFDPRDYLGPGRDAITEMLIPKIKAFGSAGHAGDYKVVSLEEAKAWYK
UniProt P00883: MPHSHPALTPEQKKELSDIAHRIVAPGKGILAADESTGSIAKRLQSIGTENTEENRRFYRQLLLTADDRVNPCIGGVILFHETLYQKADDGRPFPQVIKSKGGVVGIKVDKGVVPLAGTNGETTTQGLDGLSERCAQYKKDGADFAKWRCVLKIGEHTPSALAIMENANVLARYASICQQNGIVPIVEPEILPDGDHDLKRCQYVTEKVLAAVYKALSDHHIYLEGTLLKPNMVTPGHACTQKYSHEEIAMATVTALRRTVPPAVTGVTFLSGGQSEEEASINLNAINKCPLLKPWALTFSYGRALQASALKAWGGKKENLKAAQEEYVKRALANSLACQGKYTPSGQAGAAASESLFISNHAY
UniProt Q99828: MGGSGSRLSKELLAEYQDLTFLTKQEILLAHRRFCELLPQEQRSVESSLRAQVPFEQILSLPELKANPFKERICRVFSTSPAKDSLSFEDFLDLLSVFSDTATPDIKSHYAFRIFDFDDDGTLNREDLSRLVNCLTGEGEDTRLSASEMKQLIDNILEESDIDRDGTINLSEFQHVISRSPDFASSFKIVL
UniProt P10635, whole entry, looked up: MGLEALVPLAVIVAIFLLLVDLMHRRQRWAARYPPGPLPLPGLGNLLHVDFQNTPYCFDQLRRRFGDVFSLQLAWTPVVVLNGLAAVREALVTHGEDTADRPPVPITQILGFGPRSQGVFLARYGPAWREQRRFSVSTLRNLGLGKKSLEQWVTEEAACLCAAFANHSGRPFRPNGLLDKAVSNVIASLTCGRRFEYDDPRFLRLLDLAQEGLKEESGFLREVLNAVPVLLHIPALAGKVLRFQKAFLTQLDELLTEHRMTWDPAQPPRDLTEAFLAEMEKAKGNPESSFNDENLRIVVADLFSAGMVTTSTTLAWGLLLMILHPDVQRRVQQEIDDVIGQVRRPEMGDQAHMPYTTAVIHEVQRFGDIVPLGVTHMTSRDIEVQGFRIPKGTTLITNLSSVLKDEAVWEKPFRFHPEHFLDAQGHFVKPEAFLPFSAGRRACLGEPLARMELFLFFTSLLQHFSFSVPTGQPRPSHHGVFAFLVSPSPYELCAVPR
UniProt P11712, whole entry, looked up: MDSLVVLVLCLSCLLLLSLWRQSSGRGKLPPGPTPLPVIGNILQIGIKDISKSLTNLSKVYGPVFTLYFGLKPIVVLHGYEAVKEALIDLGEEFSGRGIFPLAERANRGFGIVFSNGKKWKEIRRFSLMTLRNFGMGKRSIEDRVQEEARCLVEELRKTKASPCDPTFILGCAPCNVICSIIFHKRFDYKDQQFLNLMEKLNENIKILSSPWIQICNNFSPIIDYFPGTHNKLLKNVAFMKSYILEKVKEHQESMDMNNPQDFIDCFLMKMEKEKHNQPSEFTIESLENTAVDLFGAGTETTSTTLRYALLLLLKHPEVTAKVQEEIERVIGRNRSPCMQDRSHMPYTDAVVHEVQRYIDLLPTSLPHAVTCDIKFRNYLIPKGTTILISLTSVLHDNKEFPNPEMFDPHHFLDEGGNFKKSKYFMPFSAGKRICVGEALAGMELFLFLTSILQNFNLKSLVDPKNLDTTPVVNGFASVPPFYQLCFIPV

Assay [1] is described as follows: qHTS Assay for Inhibitors of Fructose-1,6-bisphosphate Aldolase from Giardia Lamblia: Giardia lamblia growth inhibition (AID 2785). Note: % is set by controls: 0 for no effect and ±100 for the full control effect; nearly all actives have a fitted effect of over 70% in size. Particulars: Giardia lamblia trophozoite growth inhibition; at 38.3 µM (top of the series). In short, it runs like this: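 Whole-parasite growth test: Giardia WB trophozoites in TYI-S-33 (pH 7.0), 100 per well, incubated 48 h at 37C with compound. ATP content was read by ATPlite luminescence.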
Background: Quantitative high-throughput screening tests each substance at several concentrations.

A short description of assay [2]: qHTS Assay for Inhibitors of Fructose-1,6-bisphosphate Aldolase from Giardia Lamblia: Mammalian cellular toxicity (AID 2786).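 Note: compound exposure lasted 48 h before reading; % is set by controls: 0 for no effect and ±100 for the full control effect; nearly all actives have a fitted effect of over 60% in size.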 To be noted: mammalian cell viability counter-screen; at 57.5 µM (top of the series). The method in brief: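 Mammalian cytotoxicity surrogate: Chinese hamster ovary cells exposed to compound for 48 h at 37 °C. Cellular ATP then measured with ATPlite reagent, 20 min incubation.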

Assay [3] has as its target Fructose-bisphosphate aldolase (Giardia intestinalis (strain ATCC 50803 / WB clone C6)) (UniProt A8B2U2). Kind of assay: qHTS Assay for Inhibitors of Fructose-1,6-bisphosphate Aldolase from Giardia Lamblia: Primary screen confirmation (AID 2787).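 Note: aldolase product measured through coupled diaphorase step turning resazurin into fluorescent resorufin; % is set by controls: 0 for no effect and ±100 for the full control effect; nearly all actives have a fitted effect of over 45% in size.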 Particulars: purified Giardia aldolase enzyme activity; at 57.5 µM (top of the series). In short, it runs like this: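 Confirmation of primary hits by qHTS up to 57.5 uM final compound. Enzyme at 40 nM with 30 uM ZnCl2, 10 min RT pre-incubation, then substrate/coupling/resorufin-forming detection mix for 20 min before fluorescence read at 525/598 nm.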

The target in assay [4] is Fructose-bisphosphate aldolase A (Oryctolagus cuniculus) (UniProt P00883). Kind of assay: qHTS Assay for Inhibitors of Fructose-1,6-bisphosphate Aldolase from Giardia Lamblia: Rabbit FBPA Selectivity (AID 2794). Note: % is set by controls: 0 for no effect and ±100 for the full control effect; nearly all actives have a fitted effect of over 60% in size. To be noted: Rabbit muscle FBPA enzyme inhibition, selectivity counter-screen; at 57.5 µM (top of the series). In short, it runs like this: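 Selectivity was assessed on rabbit Class I enzyme by qHTS. Product formation was detected by AmpLite Red fluorescence (525/598 nm) after a 20 min RT reaction started with substrate, following 10 min compound preincubation at up to 57.5 uM final.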

Assay [5] is described as follows: qHTS Assay for Inhibitors of Fructose-1,6-bisphosphate Aldolase from Giardia Lamblia: Coupling assay counterscreen confirmation (AID 2795). Note: % is set by controls: 0 for no effect and ±100 for the full control effect; nearly all actives have a fitted effect of over 55% in size. To be noted: GAPDH coupling enzyme counterscreen, biochemical; at 57.5 µM (top of the series). The method in brief:
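Readings at 525 nm excitation and 598 nm emission follow a two-step room-temperature protocol: 10 min of compound (up to 57.5 uM final) with coupling enzyme reagent, then 20 min with substrate and AmpLite Red detection reagent.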

The nature of assay [6]: High-throughput drug toxicity screening in the BPDCN cell line Gen2.2 (AID 1224824; call rule not given here;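 note: cells exposed to compounds for 48 h before reading; 100% = DMSO and 0% = bortezomib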). Particulars: Gen2.2 BPDCN cells; at 45.8 µM (top of the series).
Assay [7] can be described thus: High-throughput drug toxicity screening in the BPDCN cell line Cal-1 (AID 1224825; call rule not given here;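 note: 100% = DMSO and 0% = bortezomib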). To be noted: Cal-1 BPDCN cell viability, qHTS; at 45.8 µM (top of the series).
Assay [8] in a line: qHTS Screen of the MIPE 4.0 Collection Against Ewings Sarcoma (RDES) (AID 1259252).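 Note: 100% = DMSO-treated cells and 0% = medium-only wells without cells; nearly all actives have a fitted effect of over 35% in size.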 Particulars: RD-ES Ewing sarcoma viability, CellTiter-Glo, 48 h; at 45.8 µM (top of the series).
Assay [9] in a line: P-glycoprotein substrates identified in KB-8-5-11 adenocarcinoma cell line, qHTS therapeutic library screen (AID 1346987). Note: % is set by controls: 0 for no effect and ±100 for the full control effect; nearly all actives have a fitted effect of over 65% in size. Particulars: KB-8-5-11 (P-gp overexpressing) viability, CellTiter-Glo, 72 h; at 44.5 µM (top of the series) unless noted.
A short description of assay [10]: qHTS of pediatric cancer cell lines to identify multiple opportunities for drug repurposing: Primary screen for TC32 cells (AID 1347089). Note: % is set by controls: 0 for no effect and ±100 for the full control effect; nearly all actives have a fitted effect of over 60% in size. To be noted: TC32 Ewing sarcoma viability, CellTiter-Glo luminescence, 48 h; at 45.8 µM (top of the series) unless noted.
Assay [11] in a line: qHTS of pediatric cancer cell lines to identify multiple opportunities for drug repurposing: Primary screen for DAOY cells (AID 1347090).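 Note: plate controls were DMSO for no effect and bortezomib for full effect; nearly all actives have a fitted effect of over 55% in size.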
Assay [12] in a line: qHTS of pediatric cancer cell lines to identify multiple opportunities for drug repurposing: Primary screen for SJ-GBM2 cells (AID 1347091).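 Note: plate controls were DMSO neutral control for no effect and bortezomib for full effect.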 To be noted: SJ-GBM2 viability, CellTiter-Glo luminescence, 48 h; at 46 µM (top of the series) unless noted.
The nature of assay [13]: qHTS of pediatric cancer cell lines to identify multiple opportunities for drug repurposing: Primary screen for A673 cells (AID 1347092). Note: % is set by controls: 0 for no effect and ±100 for the full control effect; nearly all actives have a fitted effect of over 45% in size. To be noted: A673 Ewing sarcoma viability, CellTiter-Glo ATP luminescence, 48 h; at 46 µM (top of the series) unless noted.
Assay [14] is described as follows: qHTS of pediatric cancer cell lines to identify multiple opportunities for drug repurposing: Primary screen for SK-N-MC cells (AID 1347093).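 Note: plate controls were DMSO neutral control for no effect and bortezomib for full effect.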 To be noted: SK-N-MC viability, CellTiter-Glo luminescence, 48 h; at 46 µM (top of the series) unless noted.
Assay [15] in a line: qHTS of pediatric cancer cell lines to identify multiple opportunities for drug repurposing: Primary screen for BT-37 cells (AID 1347094).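 Note: plate controls were DMSO for no effect and bortezomib for full effect.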 To be noted: BT-37 viability, CellTiter-Glo luminescence, 48 h; at 57.3 µM (top of the series) unless noted.
Assay [16] can be described thus: qHTS of pediatric cancer cell lines to identify multiple opportunities for drug repurposing: Primary screen for NB-EBc1 cells (AID 1347095).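 Note: plate controls were DMSO neutral control for no effect and bortezomib for full effect.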 Particulars: NB-EBc1 neuroblastoma viability, CellTiter-Glo luminescence, 48 h; at 46 µM (top of the series) unless noted.
The nature of assay [17]: qHTS of pediatric cancer cell lines to identify multiple opportunities for drug repurposing: Primary screen for U-2 OS cells (AID 1347096).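 Note: plate controls were DMSO wells for no effect and bortezomib positive control wells for full effect; nearly all actives have a fitted effect of over 50% in size.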 To be noted: U-2 OS viability, CellTiter-Glo luminescence, 48 h; at 46 µM (top of the series) unless noted.
The nature of assay [18]: qHTS of pediatric cancer cell lines to identify multiple opportunities for drug repurposing: Primary screen for Saos-2 cells (AID 1347097). Note: % is set by controls: 0 for no effect and ±100 for the full control effect; nearly all actives have a fitted effect of over 40% in size. Particulars: Saos-2 viability, CellTiter-Glo ATP luminescence, 48 h; at 46 µM (top of the series) unless noted.
Assay [19] can be described thus: qHTS of pediatric cancer cell lines to identify multiple opportunities for drug repurposing: Primary screen for SK-N-SH cells (AID 1347098).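 Note: DMSO served as neutral control and bortezomib at 2.3 µM as positive control; % is set by controls: 0 for no effect and ±100 for the full control effect; nearly all actives have a fitted effect of over 65% in size.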 To be noted: SK-N-SH viability, CellTiter-Glo luminescence, 48 h; at 57 µM (top of the series) unless noted.
Assay [20] can be described thus: qHTS of pediatric cancer cell lines to identify multiple opportunities for drug repurposing: Primary screen for NB1643 cells (AID 1347099).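 Note: plate controls were DMSO neutral control for no effect and bortezomib positive control for full effect; nearly all actives have a fitted effect of over 50% in size.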 To be noted: NB1643 neuroblastoma viability, CellTiter-Glo luminescence, 48 h; at 46 µM (top of the series) unless noted.
Assay [21] is described as follows: qHTS of pediatric cancer cell lines to identify multiple opportunities for drug repurposing: Primary screen for Rh18 cells (AID 1347102). Note: % is set by controls: 0 for no effect and ±100 for the full control effect; nearly all actives have a fitted effect of over 65% in size. Particulars: Rh18 rhabdomyosarcoma viability, CellTiter-Glo luminescence, 48 h; at 46 µM (top of the series) unless noted.
Assay [22] is described as follows: qHTS of pediatric cancer cell lines to identify multiple opportunities for drug repurposing: Primary screen for OHS-50 cells (AID 1347103). Note: potency is the fitted concentration of half-maximal effect; nearly all actives have a fitted effect of over 40% in size.
The nature of assay [23]: qHTS of pediatric cancer cell lines to identify multiple opportunities for drug repurposing: Primary screen for RD cells (AID 1347104).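 Note: plate controls were DMSO for no effect and bortezomib for full effect; nearly all actives have a fitted effect of over 55% in size.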 Particulars: RD rhabdomyosarcoma viability, CellTiter-Glo luminescence, 48 h; at 46 µM (top of the series) unless noted.
Assay [24] is described as follows: qHTS of pediatric cancer cell lines to identify multiple opportunities for drug repurposing: Primary screen for MG 63 (6-TG R) cells (AID 1347105). Note: % is set by controls: 0 for no effect and ±100 for the full control effect; nearly all actives have a fitted effect of over 50% in size. Particulars: MG 63 (6-TG R) viability, CellTiter-Glo, 48 h; at 46 µM (top of the series) unless noted.
Assay [25] in a line: qHTS of pediatric cancer cell lines to identify multiple opportunities for drug repurposing: Primary screen for control Hh wild type fibroblast cells (AID 1347106).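 Note: % is set by controls: 0 for no effect and ±100 for the full control effect; a drop in luminescence marks cytotoxicity and a rise apparent proliferation; nearly all actives have a fitted effect of over 55% in size.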 To be noted: Hh wild-type fibroblast viability, CellTiter-Glo luminescence, 48 h; at 46 µM (top of the series) unless noted.
Assay [26] in a line: qHTS of pediatric cancer cell lines to identify multiple opportunities for drug repurposing: Primary screen for Rh30 cells (AID 1347107). Note: % is set by controls: 0 for no effect and ±100 for the full control effect; nearly all actives have a fitted effect of over 75% in size. To be noted: Rh30 rhabdomyosarcoma viability, CellTiter-Glo luminescence, 48 h; at 46 µM (top of the series) unless noted.
Assay [27] in a line: qHTS of pediatric cancer cell lines to identify multiple opportunities for drug repurposing: Primary screen for Rh41 cells (AID 1347108).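 Note: luminescence drop marks cytotoxic hits; nearly all actives have a fitted effect of over 70% in size.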 Particulars: Rh41 rhabdomyosarcoma viability, CellTiter-Glo luminescence, 48 h; at 46 µM (top of the series) unless noted.
For assay [28], the target named is Calcium and integrin-binding protein 1 (Homo sapiens) (UniProt Q99828). In words: Primary qHTS for Identification of Calcium Integrin Binding Protein 1 (CIB1) Competitor (AID 1508620).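 Note: GST tagged CIB1 binding a fluorescein labelled alphaIIb integrin peptide tracer; top concentration of the series differs between compounds; % is set by controls: 0 for no effect and ±100 for the full control effect.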 To be noted: CIB1-GST / FITC-alphaIIb peptide fluorescence polarization; at 114 µM (top of the series) unless noted.
Assay [29] in a line: Primary qHTS for small molecule stabilizers of the endoplasmic reticulum resident proteome: Secreted ER Calcium Modulated Protein (SERCaMP) assay (AID 1508630). Note: % is set by controls: 0 for no effect and ±100 for the full control effect. To be noted: SH-SY5Y GLuc-SERCaMP secretion, thapsigargin, luminescence; at 38.4 µM (top of the series). The method in brief: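 GLuc-SERCaMP-expressing SH-SY5Y cells, pretreated 16 h with compound, are challenged with thapsigargin to empty ER calcium stores; after 4 h, coelenterazine is added directly to the medium and luminescence is imaged.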

The target of assay [30] is Cytochrome P450 2D6 (Homo sapiens) (UniProt P10635). In words: Cytochrome P450 family 2 subfamily D member 6 (CYP2D6) small molecule antagonists: luciferase biochemical (cell-free) qHTS assay (AID 1645840; active = well fitted curve in the direction sought with a large enough effect in the repeat runs; an effect the other way counts as inactive or inconclusive). The method in brief:
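P450-Glo luminescent screen: recombinant CYP2D6 enzyme–proluciferin substrate mix preincubated with compound 10 min at room temperature, then NADPH regeneration added for 1 h at room temperature. Detection reagent added for 20 min; luciferin light read as relative luminescence units.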

Assay [31] addresses Cytochrome P450 2C9 (Homo sapiens) (UniProt P11712). In words: Cytochrome P450 family 2 subfamily C member 9 (CYP2C9) small molecule antagonists: luciferase qHTS assay (AID 1645842; active = well fitted curve in the direction sought with a large enough effect in the repeat runs; an effect the other way counts as inactive or inconclusive). To be noted: P450-Glo CYP2C9 enzyme assay, luciferin luminescence; at 57.4 µM (top of the series) unless noted. In short, it runs like this: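 Luminescence, after 20 min with luciferin detection reagent, reflected CYP2C9 turnover during a 1 h NADPH-driven reaction at 37C. Enzyme-substrate mix contained 0.4% bovine serum albumin and was preincubated with compound 10 min at room temperature.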

The nature of assay [32]: Quantitative High-Throughput drug screen in 47 multiple myeloma cell lines against the NCATS MIPE library collection: FR4_PLB cell viability assay (AID 1918924). Particulars: FR4_PLB myeloma cells viability, CellTiter-Glo ATP, 48 h; at 45.8 µM (top of the series).
Assay [33] can be described thus: Quantitative High-Throughput drug screen in 47 multiple myeloma cell lines against the NCATS MIPE library collection: EJM_DSMZ cell viability assay (AID 1918926). To be noted: EJM myeloma cell viability, CellTiter-Glo ATP, 48 h; at 45.8 µM (top of the series). Background: ATP-based viability assays read luminescence as a measure of living cells.
The nature of assay [34]: Quantitative High-Throughput drug screen in 47 multiple myeloma cell lines against the NCATS MIPE library collection: ARP1_JJKsccF8 cell viability assay (AID 1918928). To be noted: ARP1 myeloma cells viability, CellTiter-Glo ATP, 48 h; at 45.8 µM (top of the series).
A short description of assay [35]: Quantitative High-Throughput drug screen in 47 multiple myeloma cell lines against the NCATS MIPE library collection: Karpas620_DSMZ cell viability assay (AID 1918959). To be noted: Karpas620 myeloma viability, CellTiter-Glo ATP luminescence, 48 h.

Only a part is listed here, and it is no random draw. Inconclusive results are not listed. The source made the active and inactive calls. Unless noted, calls come from the whole dose curve; as a rule, active = well fitted curve in the direction sought with a large enough effect; inconclusive = small, poorly fitted or top-dose-only effect, or another doubt; inactive = no such curve, though single readings can be large; an effect the other way counts as inactive or inconclusive.

As for `O=P(Nc1nccs1)(c1ccccc1)c1nc2ccccc2s1` (stereo not given), the activity change, negative = inhibition in assay [1] is inactive: -17.9%; in assay [3], inactive: -15.5%; in assay [5], inactive: -8.01%. In addition, in assay [2], the viability change, negative = toxicity is inactive: -6.92%. Also, the activity, negative = inhibition in [4] is inactive: -11.8%.
A word on the viability: it is a read-out of living cells in per cent, often relative to untreated cells. Consider `CCn1c(=O)n([C@@H]2CCN(CC3CCCCCCC3)C[C@@H]2CO)c2ccccc21`, for which the cell viability, % of control (lower = more cytotoxic) in assay [6] came out at 196%. The viability (% of control) in [7] was 108%. In assay [8], the viability (percent of control) is inactive: 91.7%. Moreover, in assay [9], the activity change, negative = cytotoxicity is inactive: -19%. Besides, the activity change, negative = cytotoxic is inactive: 2.25% in [10]; inactive: 51.7% in [12]; inactive: -19.9% in assay [13]; inactive: 53% in [14]; inactive: -21.3% in [15]; inactive: 16.8% in assay [16]. Further, the activity change, negative = cytotoxic in assay [17] was inactive: -11.4%; in [18] it was inactive: 17.1%; in assay [19], inactive: 15%; in assay [20] it was inactive: 11.6%; in [21] it was inactive: -16.5%; in assay [23] it was inactive: -25.4%. The activity change, negative = cytotoxic in assay [24] is inactive: 56.3%; in assay [25], inactive: 3.99%; in [26], inactive: 13.9%; in assay [27], inactive: -1.15%. For the same compound, the Potency entry in assay [11] is “inactive”. For the same compound, the Potency in assay [22] was active: 24.3 µM; in assay [30], active: 3.38 µM; in assay [35] it was active: 16.6 µM. Besides, the activity change, negative = inhibition in assay [28] is inactive: 1.26% [at 57.7 µM]; in [29] it was inactive: 42.5%; in [31], inactive: -7.05%. The viability (% of DMSO control) in assay [32] is inactive: 90.5%. Besides, in assay [33], the viability, % of control is inactive: 85.2%. For the same compound, in assay [34], the viability is inactive: 64%.
